Source: US7326684B2, “Peptides for enhancing resistance to microbial infections” (priority 2002, dated 2008)

Legend:
[1] = system: high-affinity (non-opioid) β-endorphin receptors on murine peritoneal macrophages; conditions: read-out: Ki, competition with [125I]β-endorphin, Zav'yalov et al. 1996; cited from earlier work
[2] = system: T lymphocytes from the blood of healthy donors; assay: Con A-induced proliferation of T lymphocytes; type: cell-based, human; conditions: with naloxone
[3] = system: non-opioid receptors for β-endorphin on T lymphocytes; assay: Competition of unlabeled ligands with [125I]β-endorphin binding to T lymphocytes; conditions: read-out: Ki, inhibition of [125I]β-endorphin binding; human T lymphocytes, 1 nM [125I]β-endorphin, 4° C.
[4] = system: non-opioid receptors for β-endorphin on T lymphocytes; conditions: read-out: Kd of labeled peptide binding to T lymphocytes; human T lymphocytes, Scatchard, in the absence of naloxone
[5] = Immunogenicity in mice; conditions: mice as model animals

**Q.** What does the source list for `CC(C)C[C@H](NC(=O)[C@H](CS)NC(=O)[C@@H](NC(=O)[C@H](CC(C)C)NC(=O)[C@@H](N)CO)[C@@H](C)O)C(=O)N[C@H](C(=O)N[C@@H](CCCCN)C(=O)NCC(=O)N[C@@H](Cc1ccccc1)C(=O)N[C@@H](Cc1ccc(O)cc1)C(=O)O)C(C)C` [immunorphin]?
**A.** Ki [1]: 2.5 nM; Stimulating effect on T lymphocyte proliferation in presence of naloxone [2]: not inhibited by naloxone; Ki [3]: 0.6 nM; Kd [4]: 7 nM; Immunogenicity [5]: No immunogenicity
